# Source: patent US9402842B2, “Synthesis and use of dual tyrosyl-DNA phosphodiesterase I (Tdp1)—topoisomerase I (Top1) inhibitors” (Purdue Research Foundation, priority 2012, dated 2016)
# Sequences of proteins named here, by UniProt entry; tags and fusion partners are left off.
# UniProt Q9NUW8, whole entry: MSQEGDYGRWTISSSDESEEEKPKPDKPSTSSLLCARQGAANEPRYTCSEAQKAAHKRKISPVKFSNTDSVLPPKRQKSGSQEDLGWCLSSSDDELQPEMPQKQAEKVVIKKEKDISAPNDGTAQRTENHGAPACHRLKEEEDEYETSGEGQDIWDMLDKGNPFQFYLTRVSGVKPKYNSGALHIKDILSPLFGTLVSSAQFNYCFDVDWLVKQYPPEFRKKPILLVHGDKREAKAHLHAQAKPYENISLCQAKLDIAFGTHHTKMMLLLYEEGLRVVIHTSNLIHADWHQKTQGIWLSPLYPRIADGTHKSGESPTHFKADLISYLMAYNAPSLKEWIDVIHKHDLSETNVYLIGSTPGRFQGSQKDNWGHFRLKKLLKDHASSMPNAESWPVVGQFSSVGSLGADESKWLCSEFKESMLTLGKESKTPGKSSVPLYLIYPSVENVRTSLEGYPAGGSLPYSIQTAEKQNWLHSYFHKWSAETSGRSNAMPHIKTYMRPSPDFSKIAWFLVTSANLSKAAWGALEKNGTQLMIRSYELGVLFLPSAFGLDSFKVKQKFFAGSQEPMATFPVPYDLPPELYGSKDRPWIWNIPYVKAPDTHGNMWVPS
# Columns and labels:
# HOP-62 = assay: NCI screen cytotoxicity, lung HOP-62; settings: read-out: Cytotoxicity (GI50 in μM) lung HOP-62; 50% growth inhibition
# UACC-62 = assay: NCI screen cytotoxicity, melanoma UACC-62; settings: read-out: Cytotoxicity (GI50 in μM) melanoma UACC-62; 50% growth inhibition
# Tdp1 [1] = target: T1, Tdp1 (Homo sapiens (Human), UniProt Q9NUW8); assay: Gel-based assay measuring the inhibition of recombinant Tdp1; type: biochemical
# Tdp1 [2] = target: T1, Tdp1; assay: Surface plasmon resonance binding to immobilized Tdp1; settings: SPR, 1:1 binding model
# Description: The binding of the inhibitor to the surface-bound Tdp1 induces an increase in resonance units from the initial baseline until a steady-state phase of this interaction is achieved as depicted by a plateau. The decrease in resonance units corresponds to the dissociation or reversibility of the interaction. […] Steroid 7, which binds Tdp1 directly, is also competitive with the DNA substrate for the Tdp1 active site.
# Surface Plasmon Resonance Analysis.
# Binding experiments were performed on a Biacore T100 instrument (GE, Piscataway N.J.). […] Coupling reagents [N-ethyl-N′-(3-dimethylaminopropyl)-carbodiimide] (EDC), N-hydroxysuccinimide (NHS) and ethanolamine were purchased from GE Heathcare, (Piscataway N.J.). Neutravidin was obtained from Pierce. In order to protect the amine groups within the active site from modification, Tdp1 was bound with a 14-base oligonucleotide before coupling to the surface.
# Binding experiments were performed as recently described.
Compound,GI50 (HOP-62) [µM],GI50 (UACC-62) [µM],"IC50 (Tdp1 [1]; determined by duplicate, read-out: Tdp1 (semiquantitative IC50 scale)) [µM]","IC50 (Tdp1 [1]; determined by quadruplicate, read-out: Tdp1 (μM), IC50 values of Tdp1 active compounds) [µM]","IC50 (Tdp1 [1]; recombinant (rec.) Tdp1, gel-based assay, listed as 14, read-out: Tdp1 IC50)",Kd (Tdp1 [2]) [µM],ka (Tdp1 [2]) [l/Ms],kd (Tdp1 [2]) [L/s]
"COc1ccc2c(c1)-c1c(c3ccc([N+](=O)[O-])cc3c(=O)n1CCCN)C2=O.Cl [Compound 51 of (B), 6-(3-Aminopropyl)-5,6-dihydro-8-methoxy-3-nitro-5,11-dioxo-11H-indeno[1,2-c]isoquinoline Hydrochloride]",0.14,0.14,–,–,–,–,–,–
"(6-Methyl-5,11-dioxo-6,11-dihydro-5H-indeno[1,2-c]isoquinolin-3-yl)-carbamic Acid [Compound 14 of (B)]",–,–,37 to 111,61 ± 7,61.7 µM and 61 µM,31,7.7e4,0.24

# Values joined by “and” are separate entries in the source; they are usually repeats but may differ in a detail not shown here. Equal entries are not always repeated. Where two headings read alike, the source gives them in different places.
